Read-outs that look alike come from different tables or passages of the source.

Chains of the proteins cited; added tags and fusions are not shown. Lines headed by an entry give the natural chain unless they say otherwise; changes in a name come on top.
UniProt P35372, whole entry, looked up: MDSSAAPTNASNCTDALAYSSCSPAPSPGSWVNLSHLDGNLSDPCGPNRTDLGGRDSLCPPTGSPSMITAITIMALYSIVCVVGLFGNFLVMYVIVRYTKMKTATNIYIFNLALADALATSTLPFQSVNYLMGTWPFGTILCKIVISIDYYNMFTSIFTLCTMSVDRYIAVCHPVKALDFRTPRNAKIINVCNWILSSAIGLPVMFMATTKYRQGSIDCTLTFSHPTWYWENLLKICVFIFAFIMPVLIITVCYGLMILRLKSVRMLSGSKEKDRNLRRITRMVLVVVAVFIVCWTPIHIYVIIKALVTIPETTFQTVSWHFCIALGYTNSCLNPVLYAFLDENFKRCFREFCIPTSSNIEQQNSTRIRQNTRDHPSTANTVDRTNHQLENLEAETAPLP
UniProt P41146: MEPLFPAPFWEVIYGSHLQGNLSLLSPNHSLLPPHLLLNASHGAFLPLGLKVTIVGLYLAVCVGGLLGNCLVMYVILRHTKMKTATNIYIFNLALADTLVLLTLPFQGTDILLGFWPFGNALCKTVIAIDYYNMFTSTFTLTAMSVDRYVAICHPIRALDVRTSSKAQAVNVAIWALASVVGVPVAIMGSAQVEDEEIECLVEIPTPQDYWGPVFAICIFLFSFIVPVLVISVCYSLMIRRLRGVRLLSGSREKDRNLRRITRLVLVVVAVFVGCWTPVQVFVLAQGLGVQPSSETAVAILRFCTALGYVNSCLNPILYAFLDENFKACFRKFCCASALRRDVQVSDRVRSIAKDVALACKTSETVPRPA
UniProt P41145: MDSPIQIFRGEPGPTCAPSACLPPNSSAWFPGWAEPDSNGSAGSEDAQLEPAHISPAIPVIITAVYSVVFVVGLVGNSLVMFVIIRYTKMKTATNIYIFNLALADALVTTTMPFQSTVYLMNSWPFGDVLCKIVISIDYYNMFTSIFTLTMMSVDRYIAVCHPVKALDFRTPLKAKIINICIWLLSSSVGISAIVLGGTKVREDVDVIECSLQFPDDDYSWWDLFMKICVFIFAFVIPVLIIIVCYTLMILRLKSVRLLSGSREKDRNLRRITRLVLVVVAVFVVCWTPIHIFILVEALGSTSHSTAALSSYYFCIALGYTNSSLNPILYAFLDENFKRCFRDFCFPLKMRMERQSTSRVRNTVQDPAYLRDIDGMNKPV

Assay [1] addresses human μ-opiate receptor (Homo sapiens (Human), UniProt P35372). The experiment in a line: μ-opiate receptor binding assay with [3H]-naloxone (CHO-K1 membrane preparation). Conditions: for Ki: read-out: Ki (μ) Mean; for % Inhibition (μ) [1 μM]: test concentration 1 μM; for Ki (μ)/Ki (ORL1): selectivity, 1/[Ki(ORL1)/Ki(μ)].
In assay [2] the target is ORL 1-receptor (Homo sapiens (Human), UniProt P41146). The experiment in a line: ORL 1 receptor binding assay with 3H-nociceptin/orphanin FQ (membranes of recombinant CHO-ORL 1 cells). Conditions: for Ki: read-out: Ki (ORL1) Mean; for % Inhibition (ORL1) [1 μM]: test concentration 1 μM.
Assay [3] deals with human κ-opiate receptor (Homo sapiens (Human), UniProt P41145). The experiment in a line: kappa-opiate receptor binding assay with [3H]-CI-977 (CHO-K1 membrane preparation). Conditions: for Ki (kappa)/Ki (ORL1): selectivity, 1/[Ki(ORL1)/Ki(kappa)]; for Ki: read-out: Ki (kappa) Mean, comparison table type E.
Assay [4] has as its system Male Sprague Dawley rats, spinal nerve ligature. The experiment in a line: Chung model: mononeuropathic pain after spinal nerve ligature (mechanical allodynia, von Frey). Conditions: 100 μg/kg.

The Ki is the equilibrium dissociation constant of an inhibitor or competing ligand from its target. Consider “4-chloro-N-((-4-(dimethylamino)-1-methyl-4-phenylcyclohexyl)methyl)benzol sulphonamide 2-hydroxypropane-1,2,3-tricarboxylate”, for which, in assay [1], the inhibition constant (Ki) was determined as 1.25 nM and the “% Inhibition (μ) [1 μM]” value amounted to 100%. Also, in assay [2], the inhibitory constant (Ki) amounted to 2.7 nM and the “% Inhibition (ORL1) [1 μM]” value worked out at 95%.

For `CN(C)C1(c2ccccc2)CCC(c2ccccc2)(N(C)C(=O)c2cccc(C(F)(F)F)c2)CC1` (single isomer, unassigned), the “% Inhibition (μ) [1 μM]” value in assay [1] was determined as 100%. Besides, the “% Inhibition (ORL1) [1 μM]” value in assay [2] is given as 97.5%.

With `CN(C)C1(c2ccccc2)CCC(c2ccccc2)(N(C)C(=O)C(c2ccccc2)c2ccccc2)CC1` (stereo not drawn), the “% Inhibition (μ) [1 μM]” value in assay [1] stood at 93%. Further, the “% Inhibition (ORL1) [1 μM]” value in assay [2] is 87%.

In the case of `CN(C)C1(c2ccccc2)CCC(c2ccccc2)(N(C)CCO)CC1` (stereo not drawn), in assay [1], the “% Inhibition (μ) [1 μM]” value stood at 28%. Further, the “% Inhibition (ORL1) [1 μM]” value in assay [2] was 18%.

In the case of `CNC1(c2ccccc2)CCC(c2ccc(C(F)(F)F)cc2)(N(C)C)CC1` (single isomer, unassigned), the “% Inhibition (μ) [1 μM]” value in assay [1] stood at 55%. Further, the “% Inhibition (ORL1) [1 μM]” value in assay [2] was 38%.

Turning to `CNC1(c2ccccc2)CCC(c2ccc(OC)cc2)(N(C)C)CC1` (single isomer, unassigned), the “% Inhibition (μ) [1 μM]” value in assay [1] was 40%. Moreover, the “% Inhibition (ORL1) [1 μM]” value in assay [2] is 50%.

As for “4-(acetidin-1-yl)-1-(3-fluorophenyl)-N,N-dimethyl-4-(3-methyl-1H-indol-2-yl)cyclohexanamine [95]”, in assay [1], the “% Inhibition (μ) [1 μM]” value came to 49%. Also, in assay [2], the “% Inhibition (ORL1) [1 μM]” value stood at 32%.

Take `CNC1(c2[nH]c3ccccc3c2C)CCC(c2cccc(F)c2)(N(C)C)CC1` (stereo not drawn): the “% Inhibition (μ) [1 μM]” value in assay [1] was 78%. Also, the “% Inhibition (ORL1) [1 μM]” value in assay [2] stood at 38%.

For the compound `CN(C)C1(c2ccccc2)CCC(C(=O)c2cc3ccccc3n2C)(N2CCCC2)CC1` (stereo not drawn), the “% Inhibition (μ) [1 μM]” value in assay [1] turned out to be 22%. The “% Inhibition (ORL1) [1 μM]” value in assay [2] was found to be 9%.

On to “2-[(4-dimethylamino-1,4-diphenyl-cyclohexyl)-methyl-amino]-N,N-dimethyl-acetamide”, for which the inhibitory constant (Ki) in assay [1] stood at 2600 nM. The “% Inhibition (ORL1) [1 μM]” value in assay [2] is listed as 65%.

With `CNC1(c2ccccc2)CCC(c2cccs2)(N(C)C)CC1` (single isomer, unassigned), the “% Inhibition (μ) [1 μM]” value in assay [1] was 93%. Also, in assay [2], the “% Inhibition (ORL1) [1 μM]” value is reported as 73%.

For the compound `Cc1c(C2(N3CCCC3)CCC(c3ccccc3)(N(C)C)CC2)[nH]c2ccccc12` (stereo not drawn), the “% Inhibition (μ) [1 μM]” value in assay [1] is given as 61%. In assay [2], the “% Inhibition (ORL1) [1 μM]” value was found to be 36%.

As to `CN(C)C1(c2ccccc2)CCC(c2ccccc2)(N(C)C)CC1` (stereo not drawn), in assay [1], the “Ki (μ)/Ki (ORL1)” value is recorded as 100 and the “% Inhibition (μ) [1 μM]” value came out at 34%. Besides, in assay [3], the “Ki (kappa)/Ki (ORL1)” value is 193. Besides, the “% Inhibition (ORL1) [1 μM]” value in assay [2] is on record as 18%.

Take `CN(C)C1(c2ccccc2)CCC(C(=N)c2cc3ccccc3n2C)(N2CCCC2)CC1` (stereo not drawn): the “% Inhibition (μ) [1 μM]” value in assay [1] is 83%. Further, the “% Inhibition (ORL1) [1 μM]” value in assay [2] is 51%.

As to `CN(Cc1cn(CO)c2ccccc12)CC1(C)CCC(c2ccccc2)(N(C)C)CC1` (stereo not drawn), the “% Inhibition (μ) [1 μM]” value in assay [1] is 99%. Further, the “% Inhibition (ORL1) [1 μM]” value in assay [2] is on record as 91%.

With “4-(acetidin-1-yl)-1-(3-fluorophenyl)-N,N-dimethyl-4-(3-methyl-1H-indol-2-yl)cyclohexanamine [96]”, in assay [1], the inhibitory constant (Ki) worked out at 235 nM and the “% Inhibition (μ) [1 μM]” value turned out to be 62%. Also, in assay [2], the Ki is 108 nM and the “% Inhibition (ORL1) [1 μM]” value was found to be 64%.

Take `Cc1c(C2(N3CCCC3)CCC(c3ccccc3)(N(C)C)CC2)[nH]c2ccc(F)cc12` (single isomer, unassigned): the “% Inhibition (μ) [1 μM]” value in assay [1] amounted to 21%. In addition, the “% Inhibition (ORL1) [1 μM]” value in assay [2] stood at 52%.

For the compound “[4-(acetidin-1-yl)-4-(3-methyl-1H-indol-2-yl)-1-phenyl-cyclohexyl]-dimethylamine”, the “% Inhibition (μ) [1 μM]” value in assay [1] worked out at 56%. Besides, the “% Inhibition (ORL1) [1 μM]” value in assay [2] amounted to 22%.

Regarding `CCOC1(c2[nH]c3ccccc3c2COC)CCC(c2ccccc2)(N(C)C)CC1.O=C(O)CC(O)(CC(=O)O)C(=O)O` (stereo not drawn), the “% Inhibition (μ) [1 μM]” value in assay [1] stood at 65%. Further, the “% Inhibition (ORL1) [1 μM]” value in assay [2] came out at 18%.

For the compound `CNC1(c2ccccc2)CCC(c2ccc(OC)cc2)(N(C)C)CC1` (stereo not drawn), the “% Inhibition (μ) [1 μM]” value in assay [1] turned out to be 43%. The “% Inhibition (ORL1) [1 μM]” value in assay [2] amounted to 15%.

For `CNC1(c2ccccc2)CCC(c2ccccc2)(N(C)C)CC1` (stereo not drawn), in assay [1], the “Ki (μ)/Ki (ORL1)” value is 36 and the “% Inhibition (μ) [1 μM]” value came out at 30%. The “Ki (kappa)/Ki (ORL1)” value in assay [3] stood at 65. For the same compound, the Ki in assay [2] (comparison table type E) came to 18 nM. Moreover, the “% Inhibition (ORL1) [1 μM]” value in assay [2] was 14%.

Take `CN(C)c1nc(N(C)C)nc(N(C)C2(c3ccccc3)CCC(c3ccccc3)(N(C)C)CC2)n1` (stereo not drawn): the “% Inhibition (μ) [1 μM]” value in assay [1] was 46%. The “% Inhibition (ORL1) [1 μM]” value in assay [2] is on record as 15%.

With `COCc1c(C2(OCc3ccccc3)CCC(c3ccccc3)(N(C)C)CC2)[nH]c2ccccc12` (stereo not drawn), in assay [1], the “% Inhibition (μ) [1 μM]” value worked out at 98%. Also, in assay [2], the “% Inhibition (ORL1) [1 μM]” value came to 83%.

Regarding `CN(C)CC1(c2ccccc2)CCC(c2ccccc2)(N(C)C)CC1` (stereo not drawn), the “% Inhibition (μ) [1 μM]” value in assay [1] is 15%. The “% Inhibition (ORL1) [1 μM]” value in assay [2] is given as 13%.

In the case of “(4-benzyl-4-((dimethylamino)methyl)-N-methyl-1-phenylcyclohexanamine”, in assay [1], the Ki came out at 1110 nM and the “% Inhibition (μ) [1 μM]” value worked out at 42%. For the same compound, in assay [2], the inhibition constant (Ki) is 3960 nM and the “% Inhibition (ORL1) [1 μM]” value amounted to 9%.

With `CN(C)C1(c2ccccc2)CCC(c2ccccc2)(N(C)C(=O)CCC(=O)O)CC1` (stereo not drawn), the “% Inhibition (μ) [1 μM]” value in assay [1] worked out at 22%. Besides, in assay [2], the “% Inhibition (ORL1) [1 μM]” value is reported as 37%.

`CN(Cc1c[nH]c2ccccc12)CC1(C)CCC(c2ccccc2)(N(C)C)CC1` (stereo not drawn): the “% Inhibition (μ) [1 μM]” value in assay [1] is reported as 95%. In addition, the “% Inhibition (ORL1) [1 μM]” value in assay [2] is recorded as 96%.

Turning to `CNC1(c2ccccc2)CCC(c2ccc(C(F)(F)F)cc2)(N(C)C)CC1` (stereo not drawn), the “% Inhibition (μ) [1 μM]” value in assay [1] is 77%. The “% Inhibition (ORL1) [1 μM]” value in assay [2] is 28%.

As to `COc1ccc(Oc2nc(Oc3ccc(OC)cc3)nc(N(C)C3(c4ccccc4)CCC(c4ccccc4)(N(C)C)CC3)n2)cc1` (single isomer, unassigned), the “% Inhibition (μ) [1 μM]” value in assay [1] is on record as 97%. In assay [2], the “% Inhibition (ORL1) [1 μM]” value turned out to be 85%.

With `CNC1(c2ccccc2)CCC(c2ccccc2)(N(C)C)CC1` (single isomer, unassigned), the “% Inhibition (μ) [1 μM]” value in assay [1] is listed as 49%. For the same compound, the inhibition constant (Ki) in assay [3] was determined as 1170 nM. The “% Inhibition (ORL1) [1 μM]” value in assay [2] turned out to be 80%.

With `Cc1c(C2(N(C)C(=O)/C=C/c3ccccc3)CCC(c3ccccc3)(N(C)C)CC2)[nH]c2ccccc12` (stereo not drawn), the “% Inhibition (μ) [1 μM]” value in assay [1] is 91%. Further, the “% Inhibition (ORL1) [1 μM]” value in assay [2] was 82%.

On to `CN(C)C1(c2ccccc2)CCC(c2ccccc2)(N(C)C(=O)c2cccc(C(F)(F)F)c2)CC1` (stereo not drawn), for which, in assay [1], the “% Inhibition (μ) [1 μM]” value came to 101%. In assay [2], the “% Inhibition (ORL1) [1 μM]” value is 91%.

Turning to `CC(=O)NCC1(C)CCC(c2ccccc2)(N(C)C)CC1.O=C(O)CC(O)(CC(=O)O)C(=O)O` (stereo not drawn), the “% Inhibition (μ) [1 μM]” value in assay [1] is given as 61%. Moreover, the “% Inhibition (ORL1) [1 μM]” value in assay [2] worked out at 17%.

As to `Cc1c(C2(NCc3ccccc3)CCC(c3ccccc3)(N(C)C)CC2)[nH]c2ccccc12.O=C(O)CC(O)(CC(=O)O)C(=O)O` (stereo not drawn), the “% Inhibition (μ) [1 μM]” value in assay [1] was 97%. In assay [2], the “% Inhibition (ORL1) [1 μM]” value came out at 72%.

With `CNC1(c2ccccc2)CCC(c2cccs2)(N(C)C)CC1` (stereo not drawn), in assay [1], the “% Inhibition (μ) [1 μM]” value came out at 29%. In addition, the “% Inhibition (ORL1) [1 μM]” value in assay [2] came to 35%.

As for `CN(Cc1c[nH]c2ccccc12)CC1(C)CCC(c2ccccc2)(N(C)C)CC1` (single isomer, unassigned), the “% Inhibition (μ) [1 μM]” value in assay [1] was 67%. Further, the “% Inhibition (ORL1) [1 μM]” value in assay [2] is given as 39%.

Consider `COCc1c(C2(OC)CCC(c3ccccc3)(N(C)C)CC2)[nH]c2ccccc12.O=C(O)CC(O)(CC(=O)O)C(=O)O` (stereo not drawn), for which, in assay [1], the “% Inhibition (μ) [1 μM]” value was found to be 67%. For the same compound, the “% Inhibition (ORL1) [1 μM]” value in assay [2] is 17%.

In the case of “N-((1-butyl-4-(dimethylamino)-4-phenylcyclohexyl)methyl)-4-chlorobenzol sulphonamide 2-hydroxypropane-1,2,3-tricarboxylate”, in assay [1], the Ki is 47.5 nM and the “% Inhibition (μ) [1 μM]” value came to 96%. For the same compound, in assay [2], the Ki turned out to be 17 nM and the “% Inhibition (ORL1) [1 μM]” value came out at 94%.

Turning to `CN(C)C1(c2ccccc2)CCC(c2ccccc2)(N(C)C)CC1` (single isomer, unassigned), the “% Inhibition (μ) [1 μM]” value in assay [1] turned out to be 59%. The inhibition constant Ki in assay [3] came to 1160 nM. Further, in assay [4], the “MPE (%), (Dose in μg/kg, rat, i.v.)” value is 25 (100) %. For the same compound, in assay [2], the “% Inhibition (ORL1) [1 μM]” value was found to be 87%.

For the compound `CN(C)C1(c2ccccc2)CCC(c2ccccc2)(N(C)CCCCO)CC1` (stereo not drawn), the “% Inhibition (μ) [1 μM]” value in assay [1] was found to be 62%. Further, the “% Inhibition (ORL1) [1 μM]” value in assay [2] amounted to 88%.

The record behind these values is patent US9403767B2, “Substituted 4-aminocyclohexane derivatives” (dated 2016).
